Values quoted from earlier work in patent US20060095982A1 (priority 2002, published 2006).
This is a selection: effects in other tests are not listed, and their absence says nothing.

Experiments:
[1] = test system: Seeds from transgenic tobacco plants expressing pentaerythritol tetranitrate reductase; settings: 1 mM GTN or 0.05 mM trinitrotoluene; cited from earlier work
wild-type seeds = settings: 1 mM GTN or 0.05 mM trinitrotoluene; cited from earlier work

| Structure (SMILES) | germination and growth of transgenic seeds [1] | germination and growth of wild-type seeds (wild-type seeds) |
| --- | --- | --- |
| O=[N+]([O-])OCC(CO[N+](=O)[O-])O[N+](=O)[O-] | able to germinate and grow | inhibited germination and growth |
| Cc1c([N+](=O)[O-])cc([N+](=O)[O-])cc1[N+](=O)[O-] | able to germinate and grow | inhibited germination and growth |
